The results in this text go back to PubChem BioAssay AID677 (Vanderbilt High Throughput Screening Facility, 2007).

Chains of the proteins cited; added tags and fusions are not shown. Lines headed by an entry give the natural chain unless they say otherwise; changes in a name come on top.
UniProt P08482: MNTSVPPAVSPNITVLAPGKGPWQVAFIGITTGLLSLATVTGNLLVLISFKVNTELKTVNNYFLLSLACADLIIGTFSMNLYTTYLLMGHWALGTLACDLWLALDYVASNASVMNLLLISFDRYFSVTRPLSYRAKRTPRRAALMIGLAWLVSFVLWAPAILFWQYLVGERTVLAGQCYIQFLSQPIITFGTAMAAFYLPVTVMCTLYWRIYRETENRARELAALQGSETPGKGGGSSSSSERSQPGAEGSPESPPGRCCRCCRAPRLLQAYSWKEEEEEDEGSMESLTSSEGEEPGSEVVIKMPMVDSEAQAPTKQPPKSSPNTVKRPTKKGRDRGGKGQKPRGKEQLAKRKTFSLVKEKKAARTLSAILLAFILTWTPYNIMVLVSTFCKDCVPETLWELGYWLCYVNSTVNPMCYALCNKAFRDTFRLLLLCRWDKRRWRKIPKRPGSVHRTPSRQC

Only a part is listed here, and it is no random draw. Active and inactive are the calls of the source.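 How the source made its calls: active means calcium response below the same-plate mean of wells given acetylcholine alone at its 80%-effect dose, minus 3 SD; inactive means the rest.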

For the experiment, the target named is Muscarinic acetylcholine receptor M1 (Rattus norvegicus) (UniProt P08482). The experiment is described as follows: blockers of ACh-evoked M1 calcium signal – CHO cells, Fluo-4 calcium, duplicate, confirmation (AID 677).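 Further: raw fluorescence intensity difference in arbitrary instrument units and not normalized.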 Conditions: ACh EC80 antagonism, at 10 µM, stronger effect = lower value.
`OC(CCN1CCCCC1)(c1ccccc1)C1CCCCC1` (configuration not stated): the calcium response (max-min fluorescence) was active: 13.2.
For `CNCCCN1c2ccccc2CCc2ccccc21` the value was active: 21.4; for `CC(C)[N+]1(C)[C@@H]2CC[C@H]1CC(OC(=O)C(CO)c1ccccc1)C2` (some centres not stated), active: 16.
On to `CN1C2CCC1CC(OC(=O)c1c[nH]c3ccccc13)C2` (configuration not stated), for which the calcium response (max-min fluorescence) is active: 460.
Consider `CCN(CC)CCOC(=O)C1(C2CCCCC2)CCCCC1`, for which the calcium response (max-min fluorescence) was active: 16.8.
Regarding `Cc1ccc(N(CC2=NCCN2)c2cccc(O)c2)cc1`, the calcium response (max-min fluorescence) is inactive: 581.
Take `OCCN1CCN(CCCN2c3ccccc3Sc3ccc(Cl)cc32)CC1`: the calcium response (max-min fluorescence) is active: 402.
